Measured values: US6936585B2, “Corticotropin releasing factor 2 receptor agonists” (priority 2002, dated 2005)

What was measured:
[1] = biological target: T1, CRF1R (Homo sapiens, UniProt P34998); assay: CRF1R agonist activation (EC50 / Emax), called comparative CRF binding; type: cell-based; conditions: for EC50: CRF1R EC50; for Emax: read-out: CRF1R Emax
T1 sequence (P34998 24-415): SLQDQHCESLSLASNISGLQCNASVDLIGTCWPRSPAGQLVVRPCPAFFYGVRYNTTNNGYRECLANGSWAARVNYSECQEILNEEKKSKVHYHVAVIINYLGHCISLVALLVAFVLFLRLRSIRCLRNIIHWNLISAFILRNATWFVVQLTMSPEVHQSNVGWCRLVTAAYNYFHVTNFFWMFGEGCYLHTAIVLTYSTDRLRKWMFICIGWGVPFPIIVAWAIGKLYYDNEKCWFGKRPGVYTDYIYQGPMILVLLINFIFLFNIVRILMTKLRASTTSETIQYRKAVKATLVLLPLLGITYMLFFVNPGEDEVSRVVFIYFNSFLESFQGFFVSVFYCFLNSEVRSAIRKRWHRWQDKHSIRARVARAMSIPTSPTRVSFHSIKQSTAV
Method in brief: (§1)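 Agonism at each human CRF receptor subtype is inferred from increased cAMP relative to vehicle, using cells expressing that subtype and either lysate cAMP measurement or a cAMP response element reporter.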

[2] = biological target: T2, CRF2R (Homo sapiens, UniProt Q13324); assay: CRF2R agonist activation (EC50 / Emax), called comparative CRF binding; type: cell-based; conditions: for Emax: read-out: CRF2R Emax
T2 sequence (Q13324 1-411): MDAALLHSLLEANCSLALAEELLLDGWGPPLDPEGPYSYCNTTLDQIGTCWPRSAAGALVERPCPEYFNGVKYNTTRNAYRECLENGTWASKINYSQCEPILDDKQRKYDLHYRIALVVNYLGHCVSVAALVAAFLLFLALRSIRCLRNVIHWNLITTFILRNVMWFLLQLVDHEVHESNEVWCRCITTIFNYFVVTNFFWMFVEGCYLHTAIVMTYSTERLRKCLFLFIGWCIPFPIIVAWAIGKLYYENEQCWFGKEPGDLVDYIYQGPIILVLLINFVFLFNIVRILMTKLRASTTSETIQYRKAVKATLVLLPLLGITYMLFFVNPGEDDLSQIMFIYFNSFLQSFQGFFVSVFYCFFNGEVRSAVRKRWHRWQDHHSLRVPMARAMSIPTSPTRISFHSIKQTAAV
Method in brief: as §1

Row | Compound | EC50 [1] [nM] | Emax [1] [%] | EC50 [2] [nM] | Emax [2] [%]
1 | CC[C@H](C)[C@H](NC(=O)[C@@H](NC(=O)[C@H](CC(=O)O)NC(=O)[C@H](CC(C)C)NC(=O)[C@H](CC(C)C)NC(=O)[C@H](CC(C)C)NC(=O)[C@H](CCCNC(=N)N)NC(=O)[C@H](CC(N)=O)NC(=O)[C@H](CC(N)=O)NC(=O)[C@H](C)NC(=O)[C@H](C)NC(=O)[C@H](CCC(N)=O)NC(=O)[C@H](CCC(N)=O)NC(=O)[C@H](CCCCN)NC(=O)[C@H](CCC(=O)O)NC(=O)[C@H](CCCCN)NC(=O)[C@H](CCC(=O)O)NC(=O)[C@H](CCC(N)=O)NC(=O)[C@H](CCCCN)NC(=O)[C@H](CCC(=O)O)NC(=O)[C@@H](NC(=O)[C@H](CCC(=O)O)NC(=O)[C@@H](NC(=O)[C@H](CCSC)NC(=O)[C@H](CCCCN)NC(=O)[C@H](CCCNC(=N)N)NC(=O)[C@H](CC(C)C)NC(=O)[C@H](CC(C)C)NC(=O)[C@H](Cc1c[nH]cn1)NC(=O)[C@H](Cc1c[nH]cn1)NC(=O)[C@@H]1CCCN1C(=O)[C@H](CC(C)C)NC(=O)[C@H](CC(=O)O)NC(=O)[C@@H](NC(=O)[C@H](CO)NC(=O)[C@@H](NC(=O)[C@@H]1CCCN1C(=O)[C@@H]1CCCN1C(=O)CNC(=O)[C@@H]1CCC(=O)N1)[C@@H](C)CC)[C@@H](C)CC)[C@@H](C)CC)[C@@H](C)CC)[C@@H](C)O)C(N)=O [compound 205] | 126 | 88 | 25 | 93
2 | CC[C@H](C)[C@H](NC(=O)[C@H](CCCNC(=N)N)NC(=O)[C@H](C)NC(=O)[C@H](CC(C)C)NC(=O)[C@H](CC(C)C)NC(=O)[C@H](CCCNC(=N)N)NC(=O)[C@H](C)NC(=O)[C@H](CC(N)=O)NC(=O)[C@H](CC(N)=O)NC(=O)[C@H](C)NC(=O)[C@H](C)NC(=O)[C@H](CCC(N)=O)NC(=O)[C@H](CCC(N)=O)NC(=O)[C@H](CCCCN)NC(=O)[C@H](CCC(=O)O)NC(=O)[C@H](CCCCN)NC(=O)[C@H](CCC(=O)O)NC(=O)[C@H](CCC(N)=O)NC(=O)[C@H](CCCCN)NC(=O)[C@H](CCC(=O)O)NC(=O)[C@@H](NC(=O)[C@H](CCC(=O)O)NC(=O)[C@@H](NC(=O)[C@@H](NC(=O)[C@H](CCCCN)NC(=O)[C@H](CCCNC(=N)N)NC(=O)[C@H](CC(C)C)NC(=O)[C@H](CC(C)C)NC(=O)[C@H](Cc1c[nH]cn1)NC(=O)[C@H](Cc1ccc(O)cc1)NC(=O)[C@@H]1CCCN1C(=O)[C@@H](NC(=O)[C@H](CC(=O)O)NC(=O)[C@@H](NC(=O)[C@H](CO)NC(=O)[C@@H](NC(=O)[C@@H]1CCCN1C(=O)[C@@H]1CCCN1C(=O)CNC(=O)[C@@H]1CCC(=O)N1)[C@@H](C)CC)[C@@H](C)CC)C(C)C)C(C)C)[C@@H](C)CC)[C@@H](C)CC)C(N)=O [compound 377] | ≥ 1000 | 25 | 19.3 | 83
3 | CC[C@H](C)[C@H](NC(=O)[C@@H](NC(=O)[C@H](CC(=O)O)NC(=O)[C@H](CC(C)C)NC(=O)[C@H](CC(C)C)NC(=O)[C@H](CC(C)C)NC(=O)[C@H](CCCNC(=N)N)NC(=O)[C@H](CC(N)=O)NC(=O)[C@H](CC(N)=O)NC(=O)[C@H](C)NC(=O)[C@H](C)NC(=O)[C@H](CCC(N)=O)NC(=O)[C@H](CCC(N)=O)NC(=O)[C@H](CCCCN)NC(=O)[C@H](CCC(=O)O)NC(=O)[C@H](CCCCN)NC(=O)[C@H](CCC(=O)O)NC(=O)[C@H](CCC(N)=O)NC(=O)[C@H](CCCCN)NC(=O)[C@H](CCC(=O)O)NC(=O)[C@@H](NC(=O)[C@H](CCC(=O)O)NC(=O)[C@@H](NC(=O)[C@@H](NC(=O)[C@H](CCCCN)NC(=O)[C@H](CCCNC(=N)N)NC(=O)[C@H](CC(C)C)NC(=O)[C@H](CC(C)C)NC(=O)[C@@H](NC(=O)[C@H](CCC(N)=O)NC(=O)[C@@H]1CCCN1C(=O)[C@H](CC(C)C)NC(=O)[C@H](CC(=O)O)NC(=O)[C@@H](NC(=O)[C@H](CO)NC(=O)[C@@H](NC(=O)[C@@H]1CCCN1C(=O)[C@@H]1CCCN1C(=O)CNC(=O)[C@@H]1CCC(=O)N1)[C@@H](C)CC)[C@@H](C)CC)[C@@H](C)CC)C(C)C)[C@@H](C)CC)[C@@H](C)CC)[C@@H](C)O)C(N)=O [compound 293] | – | 95.3 | – | 87
4 | CC[C@H](C)[C@H](NC(=O)[C@H](CCC(=O)O)NC(=O)[C@@H](NC(=O)[C@H](CCSC)NC(=O)[C@H](CCCCN)NC(=O)[C@H](CCCNC(=N)N)NC(=O)[C@H](CC(C)C)NC(=O)[C@H](CC(C)C)NC(=O)[C@H](Cc1c[nH]cn1)NC(=O)[C@H](CC(C)C)NC(=O)[C@@H]1CCCN1C(=O)[C@H](CC(C)C)NC(=O)[C@H](CC(=O)O)NC(=O)[C@@H](NC(=O)[C@H](CO)NC(=O)[C@@H](NC(=O)[C@@H]1CCCN1C(=O)[C@@H]1CCCN1C(=O)CNC(=O)[C@@H]1CCC(=O)N1)[C@@H](C)CC)[C@@H](C)CC)[C@@H](C)CC)C(=O)N[C@@H](CCC(=O)O)C(=O)N[C@@H](CCCCN)C(=O)N[C@@H](CCC(N)=O)C(=O)N[C@@H](CCC(=O)O)C(=O)N[C@@H](CCCCN)C(=O)N[C@@H](CCC(=O)O)C(=O)N[C@@H](CCCCN)C(=O)N[C@@H](CCC(N)=O)C(=O)N[C@@H](CCC(N)=O)C(=O)N[C@@H](C)C(=O)N[C@H](C(=O)N[C@H](C(=O)N[C@@H](CC(N)=O)C(=O)N[C@@H](C)C(=O)N[C@@H](CCCNC(=N)N)C(=O)N[C@@H](CC(C)C)C(=O)N[C@@H](CC(C)C)C(=O)N[C@@H](CC(=O)O)C(=O)N[C@@H](CCCNC(=N)N)C(=O)N[C@H](C(N)=O)C(C)C)[C@@H](C)O)[C@@H](C)O [compound 239] | – | 80 | – | 100
5 | CC[C@H](C)[C@H](NC(=O)[C@@H](NC(=O)[C@H](C)NC(=O)[C@H](CC(C)C)NC(=O)[C@H](CC(C)C)NC(=O)[C@H](CC(C)C)NC(=O)[C@H](C)NC(=O)[C@H](CC(N)=O)NC(=O)[C@H](CC(N)=O)NC(=O)[C@H](C)NC(=O)[C@H](C)NC(=O)[C@H](CCC(N)=O)NC(=O)[C@H](CCC(N)=O)NC(=O)[C@H](CCCCN)NC(=O)[C@H](CCC(=O)O)NC(=O)[C@H](CCCCN)NC(=O)[C@H](CCC(=O)O)NC(=O)[C@H](CCC(N)=O)NC(=O)[C@H](CCCCN)NC(=O)[C@H](CCC(=O)O)NC(=O)[C@@H](NC(=O)[C@H](CCC(=O)O)NC(=O)[C@@H](NC(=O)[C@@H](NC(=O)[C@H](CCCCN)NC(=O)[C@H](CCCNC(=N)N)NC(=O)[C@H](CC(C)C)NC(=O)[C@H](CC(C)C)NC(=O)[C@H](CCC(N)=O)NC(=O)[C@H](Cc1ccccc1)NC(=O)[C@@H]1CCCN1C(=O)[C@H](CC(C)C)NC(=O)[C@H](CC(=O)O)NC(=O)[C@@H](NC(=O)[C@H](CO)NC(=O)[C@@H](NC(=O)[C@@H]1CCCN1C(=O)[C@@H]1CCCN1C(=O)CNC(=O)[C@@H]1CCC(=O)N1)[C@@H](C)CC)[C@@H](C)CC)C(C)C)[C@@H](C)CC)[C@@H](C)CC)[C@@H](C)O)C(N)=O [compound 352] | – | 82.6 | – | 83.7
6 | CC[C@H](C)[C@H](NC(=O)[C@@H](NC(=O)[C@H](C)NC(=O)[C@H](CC(C)C)NC(=O)[C@H](CC(C)C)NC(=O)[C@H](CC(C)C)NC(=O)[C@H](C)NC(=O)[C@H](CC(N)=O)NC(=O)[C@H](CC(N)=O)NC(=O)[C@H](C)NC(=O)[C@H](C)NC(=O)[C@H](CCC(N)=O)NC(=O)[C@H](CCC(N)=O)NC(=O)[C@H](CCCCN)NC(=O)[C@H](CCC(=O)O)NC(=O)[C@H](CCCCN)NC(=O)[C@H](CCC(=O)O)NC(=O)[C@H](CCC(N)=O)NC(=O)[C@H](CCCCN)NC(=O)[C@H](CCC(=O)O)NC(=O)[C@@H](NC(=O)[C@H](CCC(=O)O)NC(=O)[C@@H](NC(=O)[C@@H](NC(=O)[C@H](CCCCN)NC(=O)[C@H](CCCNC(=N)N)NC(=O)[C@H](CC(C)C)NC(=O)[C@H](CC(C)C)NC(=O)[C@H](Cc1ccccc1)NC(=O)[C@H](Cc1ccccc1)NC(=O)[C@@H]1CCCN1C(=O)[C@H](CC(C)C)NC(=O)[C@H](CC(=O)O)NC(=O)[C@@H](NC(=O)[C@H](CO)NC(=O)[C@@H](NC(=O)[C@@H]1CCCN1C(=O)[C@@H]1CCCN1C(=O)CNC(=O)[C@@H]1CCC(=O)N1)[C@@H](C)CC)[C@@H](C)CC)C(C)C)[C@@H](C)CC)[C@@H](C)CC)[C@@H](C)O)C(N)=O [compound 317] | 187 | 100 | 9.3 | 88.3
